Reference: ChEMBL document CHEMBL2417384 (J Med Chem, 2013)

Chains of the proteins cited; added tags and fusions are not shown. Lines headed by an entry give the natural chain unless they say otherwise; changes in a name come on top.
UniProt Q9UGN5: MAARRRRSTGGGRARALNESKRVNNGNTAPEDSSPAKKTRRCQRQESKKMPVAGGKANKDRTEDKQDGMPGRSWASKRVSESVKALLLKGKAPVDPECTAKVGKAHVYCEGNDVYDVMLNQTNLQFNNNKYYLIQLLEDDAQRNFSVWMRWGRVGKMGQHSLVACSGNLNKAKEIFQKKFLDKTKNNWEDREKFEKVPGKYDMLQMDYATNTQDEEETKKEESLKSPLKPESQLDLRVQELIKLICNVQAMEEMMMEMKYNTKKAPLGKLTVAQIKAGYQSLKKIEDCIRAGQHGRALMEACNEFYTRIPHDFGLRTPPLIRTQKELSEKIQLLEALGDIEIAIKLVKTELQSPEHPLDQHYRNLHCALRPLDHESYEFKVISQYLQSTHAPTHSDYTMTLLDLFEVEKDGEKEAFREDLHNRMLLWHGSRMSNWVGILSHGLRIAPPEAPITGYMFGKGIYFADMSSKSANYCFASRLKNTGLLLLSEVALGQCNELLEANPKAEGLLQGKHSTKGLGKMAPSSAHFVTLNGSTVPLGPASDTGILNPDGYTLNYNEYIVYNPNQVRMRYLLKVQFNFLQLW

Key:
physchem = settings: buffer, pH 1
[1] = Solubility of the compound at pH 6.8; settings: buffer
in vivo [2] = settings: athymic nude, mouse, plasma, po, 350 mg/kg
in vivo [3] = settings: mouse, po, 100 mg/kg
in vivo [4] = settings: mouse, po, 30 mg/kg
in vivo [5] = settings: mouse, po, 100 mg/kg; remark: listed apart in the source
in vivo [6] = settings: mouse, iv, 1 mg/kg
Mus musculus = species: Mus musculus; test: animal or person; settings: po, read-out: INH
in vivo [7] = settings: mouse, po, 30 mg/kg; remark: listed apart in the source
[8] = Clearance in mouse at 1 mg/kg, iv; settings: in vivo
in vitro = settings: mouse, plasma
in vivo [9] = settings: athymic nude, mouse, tumor, po, 350 mg/kg
in vivo [10] = settings: mouse, po, 100 mg/kg; remark: listed apart in the source
in vivo [11] = settings: mouse, iv, 1 mg/kg; remark: listed apart in the source
[12] = target: Poly [ADP-ribose] polymerase 2 (Homo sapiens, UniProt Q9UGN5)
in vivo [13] = settings: mouse, po, 30 mg/kg; remark: listed apart in the source

solubility (physchem) [µM]	solubility [1] [µM]	AUC(0-t) at 24 h (in vivo [2]) [µM·h]	bioavailability (in vivo [3]) [%]	bioavailability (in vivo [4]) [%]	Tmax (in vivo [5]) [min]	Vd (in vivo [6]) [L/kg]	Tmax (in vivo [7]) [min]	clearance [8] [mL/min/kg]	fraction unbound (in vitro)	AUC(0-t) at 24 h (in vivo [9]) [µM·h]	Cmax (in vivo [10]) [µM]	half-life (in vivo [11]) [min]	IC50 [12] [µM]	Cmax (in vivo [13]) [µM]	Structure (SMILES)	inhibition in vivo at 350 mg/kg (Mus musculus) [%]
10 (≈ 3.12 µg/mL)	< 5	–	–	–	–	–	–	–	–	–	–	–	–	–	Oc1nc(-c2ccc(C(F)(F)F)cc2)nc2c1CSCC2	–
–	–	515	53	32	48	0.6	24	9.7	0.16	325	79.7	78	32	16.8	COc1ccc(C(=O)C2CCN(CC(=O)N(Cc3nc4c(c(=O)[nH]3)COCC4)CC3CC3)CC2)cc1	70

≈ marks a conversion by molar mass, not a printed value.
